These results are taken from US20250059229A1, “Compositions and Methods for Selective Labeling of Secondary Amines” (Emory University, priority 2021, published 2025).

The nature of the data set: Solubility of ethyne phenyldiazonium probes under aqueous reaction conditions. As to conditions: aqueous solution; ACN:sodium phosphate buffer (1:9).

“2-ethynyl-5-(methoxycarbonyl)benzene diazonium”: the solubility entry is “high solubility”.

For the substance 2-ethyne phenyldiazonium ion, the solubility result is on record as “limited solubility”.
